According to patent US12486228B2, “N-substituted indoles and use as allosteric modulators of cannabinoid receptors” (priority 2018, dated 2025):
Like-named read-outs stand apart in the source and are kept apart here.

Protein sequences, listed by entry. Tags and fused reporters are not part of them.
UniProt P21554, whole entry: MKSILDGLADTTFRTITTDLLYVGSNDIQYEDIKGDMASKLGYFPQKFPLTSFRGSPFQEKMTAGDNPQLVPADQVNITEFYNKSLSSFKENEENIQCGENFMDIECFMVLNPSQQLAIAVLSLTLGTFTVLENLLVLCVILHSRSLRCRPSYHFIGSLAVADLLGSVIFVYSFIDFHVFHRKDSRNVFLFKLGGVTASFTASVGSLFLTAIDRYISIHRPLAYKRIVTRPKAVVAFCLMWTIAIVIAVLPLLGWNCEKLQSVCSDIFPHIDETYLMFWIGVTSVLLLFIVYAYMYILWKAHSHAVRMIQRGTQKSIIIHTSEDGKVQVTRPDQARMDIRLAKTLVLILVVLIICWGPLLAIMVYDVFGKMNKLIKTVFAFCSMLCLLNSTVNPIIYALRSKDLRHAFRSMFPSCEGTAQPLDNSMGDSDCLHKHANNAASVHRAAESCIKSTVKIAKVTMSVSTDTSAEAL
UniProt P34972, whole entry, species assumed: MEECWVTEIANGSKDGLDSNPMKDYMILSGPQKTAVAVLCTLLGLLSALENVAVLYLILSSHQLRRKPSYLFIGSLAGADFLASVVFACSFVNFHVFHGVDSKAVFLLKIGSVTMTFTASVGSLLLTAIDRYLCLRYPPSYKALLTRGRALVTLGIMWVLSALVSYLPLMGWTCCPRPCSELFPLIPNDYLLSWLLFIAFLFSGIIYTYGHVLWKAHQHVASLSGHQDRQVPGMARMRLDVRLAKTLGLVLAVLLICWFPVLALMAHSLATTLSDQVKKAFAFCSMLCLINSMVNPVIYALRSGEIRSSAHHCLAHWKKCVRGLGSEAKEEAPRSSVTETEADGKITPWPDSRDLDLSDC

What was measured:
Assay in all cases: cell-based
hCB1 [1] = target: T1, hCB1 (Homo sapiens, UniProt P21554); parameters: host or cells: CHO-K1
Procedure: HitHunter cAMP assay: Inhibition of forskolin-stimulated cAMP was determined using the DiscoveRx HitHunter assay in hCB1R CHO-K1 cells. Cells (20,000 cells/well in low-volume 96 well plates) were incubated overnight in Opti-MEM (Invitrogen) containing 1% FBS at 37° C. and 5% CO2. Following this, Opti-MEM media was removed and replaced with cell assay buffer (DiscoveRx) and cells were co-treated at 37° C. with 10 μM forskolin and hCB1R ligands (0.10 nM-10 μM) for 30 min or 90 min cAMP antibody solution and cAMP working detection solutions were then added to cells according to the manufacturer's directions (DiscoveRx®) and cells were incubated for 60 min at room temperature. cAMP solution A was added according to the manufacturer's directions (DiscoveRx®) and cells were incubated for an additional 60 min at room temperature before chemiluminescence was measured on a Cytation 5 plate reader (top read, gain 200, integration time 10,000 ms).

CB2 [2] = target: T2, CB2 (Homo sapiens, UniProt P34972)
CB2 [3] = target: T2, CB2; remark: listed apart in the source
hCB1 [4] = target: T1, hCB1; parameters: host or cells: CHO-K1 PathHunter
Procedure: PathHunter CB1 β-Arrestin Assay: Chinese hamster ovary K1 (CHO-K1)-PathHunter hCB1 β-arrestin cells (DiscoveRx, Fremont, CA) were seeded at 5000 cells/well in 384-well plates 24 h before use and incubated at 37° C., 5% CO2. Compounds were dissolved in dimethyl sulfoxide (DMSO) and diluted in optimized cell culture (OCC) media. Agonist EC80 was determined directly from an agonist dose—response curve (data not shown). […] Five microliters of allosteric modulator or vehicle solution was added to each well at the appropriate concentrations and incubated for 30 min. Five microliters of agonist was then added to each well followed by a 90 min incubation. Fifteen microliters of detection reagent was then added followed by further 60 min incubation at room temperature. Chemiluminescence was measured on a standard luminescence plate reader as relative light units (RLU). Basal RLU was defined as zero. […] Data were analyzed using the fourparameter variable-slope and allosteric EC50 shift nonlinear regression equations in Prism 5.0 (GraphPad, San Diego, CA).

## O=C(O)CCC(c1ccccc1)c1cn(-c2ccccc2)c2ccccc12 (stereo not drawn) [GAT1102, 4-Phenyl-4-(1-phenyl-1H-indol-3-yl)butanoic acid]
hCB1 [1]; CB1 Agonist mode cAMP EC50, CB1, agonist mode
  EC50: 0.356 µM
hCB1 [1]; CB1 PAM mode cAMP EC50, CB1, PAM mode
  EC50: 0.419 µM
hCB1 [1]; read-out: CB1 Agonist mode cAMP Emax, CB1, agonist mode
  Emax: 89%
hCB1 [1]; read-out: CB1 PAM mode cAMP Emax, CB1, PAM mode
  Emax: 101%
CB2 [2]
  EC50: 0.271 µM
CB2 [2]; CB2, agonist mode, read-out: CB2 Agonist mode cAMP Emax
  Emax: 81%
CB2 [3]
  EC50: > 10 µM
CB2 [3]; CB2, agonist mode, read-out: CB2 Agonist mode β-Arrestin Emax
  Emax: 0%
hCB1 [4]
  EC50: > 10 µM
hCB1 [4]; read-out: CB1 Agonist mode β-Arrestin EC50, CB1, agonist mode
  EC50: > 10 µM
hCB1 [4]; read-out: CB1 Agonist mode β-Arrestin Emax
  Emax: 0%
hCB1 [4]; read-out: CB1 PAM mode β-Arrestin Emax
  Emax: 0%
